Assay results: US8426175B2, “Method for the production of a fermentation product from a pretreated lignocellulosic feedstock” (Iogen Energy Corporation, priority 2007, dated 2013)

Tested on: bacterial contaminants isolated from a contaminated Saccharomyces pilot fermentation
Conditions: YEP-glucose media, 30° C., OD at 660 nm over several hours

SMILES	dosage that suppresses bacterial growth (reduced rate of increase in OD660 vs the 0 ppm controls) [ppm]
[O][Cl+][O-] [chlorine dioxide]	≥ 100
OO [hydrogen peroxide]	≥ 50
